Experimental findings from ChEMBL document CHEMBL1131149, “Acetylcholinesterase noncovalent inhibitors based on a polyamine backbone for potential use against Alzheimer's disease” (J Med Chem, 1998) are described below.

The chains behind the UniProt entries cited, without tags or fusion partners. Where a name states a change or a piece, a line headed by the entry shows the natural chain unless it says otherwise.
UniProt P22303: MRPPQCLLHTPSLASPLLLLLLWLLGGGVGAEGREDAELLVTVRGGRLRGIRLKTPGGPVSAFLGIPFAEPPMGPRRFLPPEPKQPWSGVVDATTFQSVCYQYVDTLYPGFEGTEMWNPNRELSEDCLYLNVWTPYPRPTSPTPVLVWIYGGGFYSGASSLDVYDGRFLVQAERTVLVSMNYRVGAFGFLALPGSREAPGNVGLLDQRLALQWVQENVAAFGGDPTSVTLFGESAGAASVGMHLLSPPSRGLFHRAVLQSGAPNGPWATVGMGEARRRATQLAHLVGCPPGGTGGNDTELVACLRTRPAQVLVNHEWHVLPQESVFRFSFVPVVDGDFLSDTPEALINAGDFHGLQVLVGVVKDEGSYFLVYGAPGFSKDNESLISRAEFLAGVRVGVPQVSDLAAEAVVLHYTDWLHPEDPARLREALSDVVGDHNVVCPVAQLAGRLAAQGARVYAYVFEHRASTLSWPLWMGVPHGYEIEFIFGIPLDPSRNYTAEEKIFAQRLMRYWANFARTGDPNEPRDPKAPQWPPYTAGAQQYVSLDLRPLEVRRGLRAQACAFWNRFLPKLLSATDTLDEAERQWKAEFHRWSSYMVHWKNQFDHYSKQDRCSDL

Molecules are shown by their SMILES.

The assay addresses Acetylcholinesterase (Homo sapiens, UniProt P22303).

The compound `COc1ccccc1CNCCCCCCNCCCCCCCCNCCCCCCNCc1ccccc1OC` [METHOCTRAMINE] gave an IC50 of 5.37 µM.
